Results from patent publication US7820679B2, “N-(-3-methoxy-5-methylpyrazin-2-yl)-2-(4-′1,3,4-oxadiazol-2-yl-phenyl)pyridine-3 sulphonamide as an anticancer agent” (AstraZeneca AB, priority 2002, dated 2010).

Protein sequences, listed by entry. Tags and fused reporters are not part of them. Residues count along the entry.
UniProt P25101, 21-427: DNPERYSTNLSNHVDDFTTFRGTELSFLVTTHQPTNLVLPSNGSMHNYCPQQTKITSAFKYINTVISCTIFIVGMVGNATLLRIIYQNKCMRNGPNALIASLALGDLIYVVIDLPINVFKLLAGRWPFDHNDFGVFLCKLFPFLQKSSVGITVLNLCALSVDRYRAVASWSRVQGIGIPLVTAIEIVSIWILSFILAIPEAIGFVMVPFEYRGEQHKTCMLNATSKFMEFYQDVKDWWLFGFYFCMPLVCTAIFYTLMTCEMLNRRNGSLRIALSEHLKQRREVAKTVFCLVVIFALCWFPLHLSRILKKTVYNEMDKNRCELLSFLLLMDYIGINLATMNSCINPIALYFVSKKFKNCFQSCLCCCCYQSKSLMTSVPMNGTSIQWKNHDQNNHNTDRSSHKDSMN

Target: Human recombinant ETA receptor (Homo sapiens, UniProt P25101)
Test: biochemical

IC50: 5.37 nM
SMILES: COc1nc(C)cnc1NS(=O)(=O)c1cccnc1-c1ccc(-c2nnco2)cc1 [Compound (I), N-(3-methoxy-5-methylpyrazin-2-yl)-2-(4-[1,3,4-oxadiazol-2-yl]phenyl)pyridine-3-sulphonamide]
